## Binding of CDR-mutated scFvs to a peptide of the spike HR2 region

Target peptide (SARS-CoV-2 spike, HR2 region): PDVDLGDISGINAS

Each scFv is VH, a (GGGGS)3 linker, VL, as in the parent Ab-14, and differs from it in the CDRs of the light chain only.
VH: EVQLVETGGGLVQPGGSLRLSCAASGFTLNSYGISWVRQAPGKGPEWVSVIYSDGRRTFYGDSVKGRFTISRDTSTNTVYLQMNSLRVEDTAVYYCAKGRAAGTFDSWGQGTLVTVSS
VL: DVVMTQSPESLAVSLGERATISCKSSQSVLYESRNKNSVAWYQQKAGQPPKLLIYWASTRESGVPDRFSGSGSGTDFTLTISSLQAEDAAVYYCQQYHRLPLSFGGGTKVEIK

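The parent was found by panning a naive human phage display library on the peptide. This is the validation round: designs drawn from the data on random variants, tested in the same kind of assay. Several design methods are mixed in this list. Affinity was read by AlphaSeq, a pooled yeast mating assay with surface-displayed partners. After mating in shaken culture at 30 °C for 16 h, diploids were selected and their barcode pairs sequenced. A regression on co-assayed BCL2-family reference pairs converts the normalised counts of each replicate to an apparent Kd. Mating was done six times.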

Variants are written as CDR1, CDR2 and CDR3 of the light chain (limits as in the source). Parent: KSSQSVLYESRNKNSVA, WASTRES, QQYHRLPLS. This list holds designs with at most six substitutions. The read-out is the apparent dissociation constant on a log10 scale (nM): the lower, the stronger. Averages over replicates are reported, and they cover detected replicates only. An entry "no signal" has no value in the source: the pair was not observed among the diploids in any replicate. This suggests poor binding but is not conclusive.

Variant KSSQSVVGESRNKNSVA / GASTRES / QQYHRLPLS showed 0.64 (6 of 6 replicates; controls 2 of 18). Variant KLLNSTLYESRQKNSVA / WASTRES / QQYHRLPLS gave 1.98 (4 of 6 replicates; controls 3 of 18). Variant KLSQSMLYESRNKNAVA / NASTRMS / QQYHRLPLS gave -0.11 (6 of 6 replicates; controls 0 of 18). With KLSWSWLYESRNKNSVA / EASTRES / QQYHRLPLS the result was -0.16 (6 of 6 replicates; controls 0 of 18). For KVSQSFLYESRNKNSVA / DASTRES / QQYHRLPLS, the assay gave -0.41 (6 of 6 replicates; controls 0 of 18).

Variant KLSQSQLYESRNKNNVA / EASTRES / QQYHRLPLS showed -0.23 (6 of 6 replicates; controls 0 of 18). Variant KSSQSVLYESRNLNSVA / WAKTRES / QQYHRLPLS showed 1.71 (5 of 6 replicates; controls 1 of 18). For KFSQSVLYESRNKNSVA / NASTRES / QQYHQLPLS, the assay gave 0.03 (6 of 6 replicates; controls 1 of 18). Variant VSSQSVLYESRNKNSVA / WGTTRES / QQYHRLPLS gave 1.31 (6 of 6 replicates; controls 0 of 18). Variant RSSDYVGYESRNKNSVA / MASTRES / QQYHRLPLS showed 0.55 (6 of 6 replicates; controls 2 of 18).

For KSSQSLQYESANKNSVA / GASTRES / QQYHRLTLS, the assay gave 2.35 (1 of 6 replicates; controls 0 of 18). For KSLQSGLYESRNKNSVA / HASTREQ / QQYHRLPLS, the assay gave 0.89 (5 of 6 replicates; controls 1 of 18). Variant KLSQSELYESRNKNSVA / EASTRYS / QQYHRLPLS showed -0.17 (6 of 6 replicates; controls 0 of 18). Variant KSSQSVKYESLNKNSVA / DASTPES / QQYIRLPLS showed 0.20 (6 of 6 replicates; controls 0 of 18). With KSSQSVLYESRNFNSVA / FASTRES / QQHHRLPLS the result was no signal (0 of 6 replicates; controls 1 of 18).

With KLDMSTLYESRNKNSVA / WASTRES / QQYHRLPLS the result was 0.25 (6 of 6 replicates; controls 2 of 18). Variant KLSQSVLYESRNKNNVA / NASTREQ / QQYHRLPLS gave 0.57 (6 of 6 replicates; controls 0 of 18). For KSSQSVLYETRNKNSVA / EASTRES / QQYHRLPLS, the assay gave 0.37 (6 of 6 replicates; controls 0 of 18). For MVSQSVLYESRNKNSVA / WASTRES / QQYHRLPLS, the assay gave 1.62 (6 of 6 replicates; controls 1 of 18). With KSSQSVKFESRNKNSVA / DASTREQ / QQYHRLPLS the result was 0.25 (6 of 6 replicates; controls 2 of 18).

With KSQQLVLYESRNNNSVA / GSSTRES / QQYHRLPLS the result was 0.53 (6 of 6 replicates; controls 2 of 18). With KLTQSVLYESRNKNSVA / NASQRES / QQYHRLPLS the result was 0.31 (6 of 6 replicates; controls 1 of 18). For KMSQLVLYDSRNKNSVA / AASTRES / QQYHRLPLS, the assay gave -0.07 (6 of 6 replicates; controls 0 of 18). Variant KSSQSVLYESRNKNSVA / WASTRES / QQYMRLPLS gave 3.78 (1 of 6 replicates; controls 1 of 18). Variant KSSQSVSYESRNENSVA / QASTRES / QQYHRLPLS gave 0.27 (6 of 6 replicates; controls 0 of 18).

Variant KSSQSVLYESRNKNSVA / WASTNES / QQYARLPLS gave no signal (0 of 6 replicates; controls 1 of 18). For KASYSVLYESTGKNSVA / WASTREP / QQYHRLPLS, the assay gave 1.79 (5 of 6 replicates; controls 1 of 18). For KLYQSTLYESRNKNSVA / NASTRLS / QQYHRLPLS, the assay gave 0.34 (6 of 6 replicates; controls 0 of 18). For KMSQSQLYETRNKNSVA / NGSTRES / QQYHRLPLS, the assay gave 0.22 (6 of 6 replicates; controls 1 of 18). With KVSQSYLYESRNKNSVA / HASTRES / QQYHRLPLS the result was 0.22 (6 of 6 replicates; controls 0 of 18).

With KVSQSVLYESRNKNSVA / WASTREM / QQPHRLALS the result was no signal (0 of 6 replicates; controls 0 of 18). For KSYISQLYESRNKNSVA / EASTRES / QQYHRLPLM, the assay gave 0.18 (6 of 6 replicates; controls 0 of 18). With KLPQSQLYESRNKNSVA / NASYRES / QQYHRLPLS the result was -0.14 (6 of 6 replicates; controls 3 of 18). With KSTQSVLYESRNKNSVA / HASTRED / QQYHRLPLS the result was 0.78 (6 of 6 replicates; controls 1 of 18). Variant KLSQSVDYESRNKNSVA / NASTRCS / QQYHRLPLS showed 0.26 (6 of 6 replicates; controls 2 of 18).

Variant KLQQSVLYESRNKNSVA / GASQRES / QQYHRLPLS gave -0.09 (6 of 6 replicates; controls 2 of 18). With KLSQSVPYESRNKNSVA / EASTREQ / QQYHRLPLS the result was -0.01 (6 of 6 replicates; controls 0 of 18). With KLSQSVLYESRNKNSVA / EASTRSS / QQYHRLPLS the result was 0.03 (6 of 6 replicates; controls 3 of 18). With KLPNSTLYESRQKNSVA / GASTRES / QQYHRLPLS the result was 0.61 (6 of 6 replicates; controls 0 of 18). With KLSQSKLYESRNKNSVA / NASQRLS / QQYHRLPLS the result was 0.20 (6 of 6 replicates; controls 2 of 18).

Variant KSSQPVLYESRNKNSVA / HAFTRFH / QQYHRLPLS gave 2.13 (1 of 6 replicates; controls 0 of 18). Variant KVSQSGLYESRNKNSVA / NASTRES / QDYHRLPLS showed 0.03 (6 of 6 replicates; controls 0 of 18). Variant KLWQSELYESRNKNSVA / NASTRLS / QQYHRLPLS gave -0.29 (6 of 6 replicates; controls 0 of 18). For HSSQSVPYESRNKNSVA / NASTRES / QQYHRLPLS, the assay gave -0.10 (6 of 6 replicates; controls 1 of 18). With KSSSSVLYESGNKNSVA / HASTRED / QQYHRLPLS the result was 0.25 (6 of 6 replicates; controls 2 of 18).

Variant KSDQSILYESRNKNSVA / WASTRES / QQYHRLPLS gave 2.47 (5 of 6 replicates; controls 1 of 18). Variant KSSHSVLYESRNKNSVA / WASTRES / QQYHGLPLS gave no signal (0 of 6 replicates; controls 1 of 18). Variant KFSQSVLYENRTKNSVA / NASTRES / QQYHRLPLS gave 0.61 (6 of 6 replicates; controls 0 of 18). For KSSISYLYPSRMKNSVA / EASTRES / QQYHRLPLS, the assay gave 0.28 (6 of 6 replicates; controls 0 of 18).

The last 6 entries again:

{"CDR-L1": "HSSQSVPYESRNKNSVA", "CDR-L2": "NASTRES", "CDR-L3": "QQYHRLPLS", "log10 Kd (nM), mean": "-0.10", "replicates with signal": "6 of 6", "control signals": "1 of 18"}
{"CDR-L1": "KSSSSVLYESGNKNSVA", "CDR-L2": "HASTRED", "CDR-L3": "QQYHRLPLS", "log10 Kd (nM), mean": "0.25", "replicates with signal": "6 of 6", "control signals": "2 of 18"}
{"CDR-L1": "KSDQSILYESRNKNSVA", "CDR-L2": "WASTRES", "CDR-L3": "QQYHRLPLS", "log10 Kd (nM), mean": "2.47", "replicates with signal": "5 of 6", "control signals": "1 of 18"}
{"CDR-L1": "KSSHSVLYESRNKNSVA", "CDR-L2": "WASTRES", "CDR-L3": "QQYHGLPLS", "log10 Kd (nM), mean": "no signal", "replicates with signal": "0 of 6", "control signals": "1 of 18"}
{"CDR-L1": "KFSQSVLYENRTKNSVA", "CDR-L2": "NASTRES", "CDR-L3": "QQYHRLPLS", "log10 Kd (nM), mean": "0.61", "replicates with signal": "6 of 6", "control signals": "0 of 18"}
{"CDR-L1": "KSSISYLYPSRMKNSVA", "CDR-L2": "EASTRES", "CDR-L3": "QQYHRLPLS", "log10 Kd (nM), mean": "0.28", "replicates with signal": "6 of 6", "control signals": "0 of 18"}

Empty control strains, which show no peptide, gave a signal in 4% of pairings with all light chain designs; the median was 2.64 and 95% of these signals were weaker than 1.59. No background was subtracted. Also given: how often the same scFv was detected with the empty control strains. The authors averaged sequences with at least three values out of six and counted those with two or fewer as poor binders. The parent sequence was in this pool as ten entries: three were never detected, three once, and four in most replicates, with averages from 0.34 to 2.37. The range of this assay differs from that of the first round, and the authors advise against merging the two.

From the AlphaSeq antibody data of Li et al. 2023 (doi:10.1038/s41467-023-39022-2), copy in the FLAb collection.